{"source": "patent US12655441B2", "about": "“PPO polypeptides tolerant to PPO-inhibiting herbicides and use thereof” (QINGDAO KINGAGROOT CHEMICAL COMPOUND CO., LTD., priority 2021, dated 2026)", "molecules": {"B1": {"name": "L423S (protein)", "chain": "MAAAAAAMATATSATAAPPLRIRDAARRTRRRGHVRCAVASGAAEAPAAPGARVSADCVVVGGGISGLCTAQALATKHGVGDVLVTEARARPGGNITTAERAGEGYLWEEGPNSFQPSDPVLTMAVDSGLKDDLVFGDPNAPRFVLWEGKLRPVPSKPGDLPFFDLMSIPGKLRAGLGALGVRAPPPGREESVEDFVRRNLGAEVFERLIEPFCSGVYAGDPSKLSMKAAFGKVWRLEDTGGSIIGGTIKTIQERGKNPKPPRDPRLPTPKGQTVASFRKGLTMLPDAITSRLGSKVKLSWKLTSITKSDNKGYALVYETPEGVVSVQAKTVVMTIPSYVASDILRPLSSDAADALSIFYYPPVAAVTVSYPKEAIRKECLIDGELQGFGQLHPRSQGVETLGTIYSSSLFPNRAPAGRVLLSNYIGGSTNTGIVSKTESELVEAVDRDLRKMLINPKAVDPLVLGVRVWPQAIPQFLIGHLDHLEAAKSALGKGGYDGLFLGGNYVAGVALGRCVEGAYESASQISDYLTKYAYK", "modifications": "Amino-acid sequence of PPO1 from rice mutant (OsPPO1 L423S)"}, "B2": {"name": "L423G (protein)", "chain": "B1 chain with S423G", "modifications": "Amino-acid sequence of PPO1 from rice mutant (OsPPO1 L423G)"}, "B3": {"name": "Y425V (protein)", "chain": "B1 chain with S423L, Y425V", "modifications": "Amino-acid sequence of PPO1 from rice mutant (OsPPO1 Y425V)"}, "B4": {"name": "OsPPO1 WT: Amino-acid sequence of PPO1 from wild-type rice (protein)", "chain": "B1 chain with S423L", "modifications": "Amino-acid sequence of PPO1 from wild-type rice (OsPPO1 WT)"}, "B5": {"name": "Y425M (protein)", "chain": "B1 chain with S423L, Y425M", "modifications": "Amino-acid sequence of PPO1 from rice mutant (OsPPO1 Y425M)"}, "B6": {"name": "OsPPO1 L423S/Y425I: Amino-acid sequence of PPO1 from rice mutant (protein)", "chain": "B1 chain with Y425I", "modifications": "Amino-acid sequence of PPO1 from rice mutant (OsPPO1 L423S/Y425I)"}}, "key": {"[1]": {"tested_on": "PPO-deficient Escherichia coli (ΔhemG)", "assay": "PPO-deficient E. coli (ΔhemG) transformed by rice OsPPO1 mutant genes, growth on LB medium containing herbicide", "conditions": "for growth of ΔhemG transformant on LB medium containing compound A, compared with the wild type: 500 nM compound A"}, "[2]": {"tested_on": "Huaidao No. 5 rice seedlings", "assay": "T0 rice seedlings overexpressing OsPPO1 WT or L423S/Y425I sprayed with compound A", "format": "in vivo", "conditions": "for resistance levels of overexpressed L423S/Y425I and overexpressed WT: compound A 45 g/ha", "method": "Rice seeds were peeled, washed with sterile water as many times as needed until the washing water became clear. Then the seeds were disinfected with 70% alcohol for 30 seconds and then with 5% sodium hypochlorite. The seeds were cultivated in a horizontal shaker for 20 minutes, disinfected with sodium hypochlorite and washed with sterile water for 5 times, placed on a sterile absorbent paper to air-dry the surface moisture of the seeds, and inoculated in an induction medium to cultivate the callus at 28° C. • 4) Infection of rice callus with Agrobacterium: the Huaidao No. 5 callus with a diameter of 3 mm was selected for sub-cultivation for 10 days and the callus was collected into a 50 ml centrifuge tube. A bacterial solution of Agrobacterium with a modulated concentration was added into the centrifuge tube containing the callus, and the centrifuge tube was placed on a shaker at 28° C. and 200 rpm to infect for 20 minutes; after the infection was completed, the bacterial solution was discharged, and the callus was placed on a sterile filter paper and air-dried for about 20 minutes and co-cultivated on a co-culture plate on which an sterile filter paper wetted with an AAM (1 ml AAM+30 μl 1000×AS) liquid culture was covered; after 3 days of infestation, Agrobacterium was washed and removed (i.e., washed with sterile water for 5 times and then washed with 500 mg/L of cephalosporin antibiotic for 20 minutes), and then the callus was screened and cultivated in 50 mg/L hygromycin screening medium. • 5) Screening, differentiation and rooting of resistant callus: the co-cultured callus was transferred to screening medium for the first round of screening (2 weeks); after the first round of screening was completed, the newly grown callus was transferred to screening medium (containing 50 mg/L hygromycin) for the second round of screening (2 weeks); after the screening was completed, yellow-white callus with a good growth state were picked out for differentiation, and seedlings of about 1 cm were obtained after 3 to 4 weeks."}, "[3]": {"tested_on": "Arabidopsis thaliana", "assay": "Herbicide resistance test of Arabidopsis thaliana seeds overexpressing crop PPO1 WT or mutant on MS medium", "format": "in vivo", "conditions": "overexpressed in Arabidopsis thaliana seed", "method": "1) Sowing: plump and vernalized wild-type Arabidopsis thaliana seeds were selected, treated with 75% alcohol for 1 minute, disinfected with 10% NaClO for 6 minutes, and washed with sterile water for 5 to 6 times. After the sterilization was completed, the seeds were placed on a MS medium plate for one week, then transplanted to sterilized nutrient soil (nutrient soil:vermiculite=1:1) and cultured in a greenhouse at (25±2) ° C. with a photoperiod of 16 h/8 h (light/dark).\n4) Infestation of Arabidopsis thaliana inflorescences: the uninfected Arabidopsis thaliana with good growth state and lush inflorescences were selected for infection and their fruit pods were cut off from the plants by scissors prior to transformation. The Arabidopsis thaliana inflorescences were dipped in the prepared infection solution for 0.5 to 1 minute. Then the infected Arabidopsis thaliana seedlings were placed in dark and humid conditions for 24 hours. After one week, the infection was repeated.\nAfter the transformation of dipped Arabidopsis thaliana inflorescences, Arabidopsis thaliana TO-generation seeds were collected and sowed on a resistant MS plate containing 30 mg/L hygromycin to screen positive plants.\nThe obtained overexpressed mutant and wild-type Arabidopsis thaliana seeds of different crops were tested for resistance on a MS medium (petri dish) containing different concentrations of PPO-inhibiting herbicidal compounds, as shown in FIG. 12-23."}, "[4]": {"tested_on": "OsPPO1", "assay": "In vitro enzyme activity test of OsPPO1 proteins (fluorescence, substrate protoporphyrinogen)", "format": "biochemical, rice", "conditions": "enzyme 500 nM, protoporphyrinogen 0.125-16 μM, excitation 410 nm, detection 630 nm", "method": "Protoporphyrinogen, a substrate catalyzed by PPO, was prepared by reducing protoporphyrin with sodium amalgam. 10 mg of protoporphyrin was dissolved in 10 mL solvent, added with 20% sodium amalgam at the rate of 0.2 g/mL, reacted for 2 hours, then filtered under the protection of nitrogen in dark place. After the reaction was completed, the reaction solution should become achromatic or light brown. The reaction solution was diluted by adding with reaction buffer (100 mM Tris-HCl, 1 mM EDTA, 5 mM DTT, 0.1% Tween 20/80), and 10% hydrochloric acid was used to adjust pH to about 8.0. […]\n3) The constructed fusion expression vector pET28a-MBP-OsPPO1 was transferred into E. coli BL21 (DE3), subjected to induced-expression with 0.5 mM IPTG, then purified with the Ni-NTA column, afterwards subjected to thrombin digestion, dialysed, and purified secondly by dextrin-column and Ni-column. […] The collected strains were re-suspended with the Ni-buffer A (50 mM Tris pH 8.0, 500 mM NaCl, 50 mM imidazole), homogenized by high pressure cell homogenizer, and centrifuged at 4000×g at 4° C. for 30 minutes; the supernatant was purified with the Ni column, then the purity thereof was detected by SDS-PAGE. The thrombin enzyme was added according to the quantity of proteins, dialyzed with 50 mM Tris pH 8.0, 500 mM NaCl, 1 mM DTT buffer. […]"}, "[5]": {"conditions": "different concentrations of compound A"}, "[6]": {"conditions": "different concentrations of flumioxazin"}, "[7]": {"conditions": "different concentrations of saflufenacil"}}, "note": "Changes are numbered by the printed parent chain. In names and notes the source's numbering stands.", "data": [{"molecule": "B1", "values": [{"measurement": "growth of ΔhemG transformant on LB medium containing compound A, compared with the wild type", "setting": "[1]", "result": "grew normally"}]}, {"molecule": "B2", "values": [{"measurement": "growth of ΔhemG transformant on LB medium containing compound A, compared with the wild type", "setting": "[1]", "result": "grew normally"}]}, {"molecule": "B3", "values": [{"measurement": "growth of ΔhemG transformant on LB medium containing compound A, compared with the wild type", "setting": "[1]", "result": "grew normally"}]}, {"molecule": "B4", "values": [{"measurement": "resistance levels of overexpressed L423S/Y425I and overexpressed WT", "setting": "[2]", "result": "similar"}]}, {"molecule": "B5", "values": [{"measurement": "growth of ΔhemG transformant on LB medium containing compound A, compared with the wild type", "setting": "[1]", "result": "grew normally"}]}, {"molecule": "B6", "values": [{"measurement": "tolerance/resistance to compound A compared with wild-type Huaidao No. 5", "setting": "[2]; T0 generation rice seedlings, compound A sprayed", "result": "certain level of tolerance/resistance"}, {"measurement": "resistance levels of overexpressed L423S/Y425I and overexpressed WT", "setting": "[2]", "result": "similar"}, {"measurement": "resistance compared with the wild-type control", "setting": "[2]; compound A 135 g/ha and 270 g/ha", "result": "still showed resistance"}, {"measurement": "growth of ΔhemG transformant with the treatment of compound A", "setting": "[1]; compound A 100 μM", "result": "normal growth"}, {"measurement": "tolerance to compound A compared with the overexpressed wild-type PPO1", "setting": "[3]; [5]", "result": "much higher"}, {"measurement": "tolerance to compound A compared with wild-type Arabidopsis thaliana", "setting": "[3]; [5]", "result": "certain level of tolerance"}, {"measurement": "tolerance to flumioxazin compared with the overexpressed wild-type PPO1", "setting": "[3]; [6]", "result": "much higher"}, {"measurement": "tolerance to flumioxazin compared with wild-type Arabidopsis thaliana", "setting": "[3]; [6]", "result": "certain level of tolerance"}, {"measurement": "tolerance to saflufenacil compared with the overexpressed wild-type PPO1", "setting": "[3]; [7]", "result": "much higher"}, {"measurement": "tolerance to saflufenacil compared with wild-type Arabidopsis thaliana", "setting": "[3]; [7]", "result": "certain level of tolerance"}, {"measurement": "enzyme activity relative to WT", "setting": "[4]", "result": "higher than WT"}]}]}
